For assay [1], the system named is Human iPSC-derived cardiomyocytes. As to the kind of experiment: DOX-induced DNA double strand break, γH2AX immunostaining. It is filed as cell-based.
The subject of assay [2] is cardiomyocytes differentiated from induced pluripotent stem cells. Kind of assay: long-term mitochondrial health, TMRM, 7 days (Example 19). It is filed as cell-based, human.
Assay [3] relates to Doxorubicin treated human iPSC-derived cardiomyocytes. As to the kind of experiment: iPSC-CM protection by myricetin analogs (Table 1). It is filed as cell-based. The following applies: read-out: iPSC-CM protection Max Effect (%), class symbol.

As for `C[C@@H](CN1CC(=O)NC(=O)C1)N1CC(=O)NC(=O)C1` [dexrazoxane], the “protection against DOX-induced double strand break (γH2AX-positive cells)” value in assay [1] is reported as “little or no protection”. Further, the “mitochondrial toxicity (decrease in TMRM-positive cells) vs mock-treated” value in assay [2] is reported as “increase in mitochondrial toxicity”. As to `O=c1c(O)c(-c2ccccc2)oc2cc(O)ccc12` [Compound 20, 3,7-dihydroxyflavone], the Emax in assay [3] was less than 30%.
